Amino acid sequences for entries named in this document (tags omitted). Residues count along the entry.
UniProt P78536, 215-477 S266A/N452Q limits assumed: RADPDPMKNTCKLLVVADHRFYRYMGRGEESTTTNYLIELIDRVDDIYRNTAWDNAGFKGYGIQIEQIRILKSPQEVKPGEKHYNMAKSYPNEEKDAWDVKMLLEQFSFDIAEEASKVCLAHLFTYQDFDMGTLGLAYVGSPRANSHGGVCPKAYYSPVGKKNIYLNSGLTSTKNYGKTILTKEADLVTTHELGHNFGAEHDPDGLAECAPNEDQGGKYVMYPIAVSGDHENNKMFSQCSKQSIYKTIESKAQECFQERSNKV

According to patent publication US7772263B2, “Compounds for the treatment of inflammatory disorders” (Schering Corporation, priority 2006, dated 2010):

Biological target: T1, purified catalytic domain of recombinant human TACE (rhTACEc) (Homo sapiens, UniProt P78536, N452Q/S266A)
T1 construct: rhTACEc, Residue 215 to 477 with two mutation (S266A and N4520) and a 6×His tail; 6xHis (C); made in house; host or cells: baculovirus/Hi5 insect cells
Assay: TACE kinetic assay, cleavage of internally quenched fluorescent peptide substrate SPDL-3
Type: biochemical
Details: rhTACEc 70 pM, 30 μM SPDL-3, 90 min pre-incubation at 25° C.; read-out: Ki (nM), TACE inhibitory activity

Ki: 0.27 nM
Compound: COc1ccc2c(c1)C(=O)N(C[C@@]1(C#Cc3ccc4c(c3)CCC43NC(=O)NC3=O)NC(=O)NC1=O)C2 (stereo partly shown) [Compound 1576]
